Experimental data taken from US9867805B2 (dated 2018).

Chains of the proteins cited; added tags and fusions are not shown. Residues count along the entry.
UniProt P14780, 107-707 limits assumed: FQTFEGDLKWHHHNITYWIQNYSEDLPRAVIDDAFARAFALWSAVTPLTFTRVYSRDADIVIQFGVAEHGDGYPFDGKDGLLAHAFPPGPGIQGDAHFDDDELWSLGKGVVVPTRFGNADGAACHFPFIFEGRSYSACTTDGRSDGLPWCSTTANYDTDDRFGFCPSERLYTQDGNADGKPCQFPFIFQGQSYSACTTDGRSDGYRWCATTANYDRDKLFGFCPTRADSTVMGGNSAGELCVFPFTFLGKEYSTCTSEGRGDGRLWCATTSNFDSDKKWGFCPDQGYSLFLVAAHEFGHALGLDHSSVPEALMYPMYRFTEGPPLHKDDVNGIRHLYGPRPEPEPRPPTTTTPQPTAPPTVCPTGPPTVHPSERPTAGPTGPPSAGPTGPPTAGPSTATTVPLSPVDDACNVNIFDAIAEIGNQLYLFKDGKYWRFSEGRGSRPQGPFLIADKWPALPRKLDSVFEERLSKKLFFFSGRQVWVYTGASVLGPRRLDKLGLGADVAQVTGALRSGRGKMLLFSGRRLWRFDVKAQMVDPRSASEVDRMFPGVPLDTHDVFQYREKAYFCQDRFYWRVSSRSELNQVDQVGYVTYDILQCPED

Experiments:
Experiment in all cases: biochemical
[1] = molecular target: T1, human MMP-2 (Homo sapiens, UniProt P08253)
T1 sequence (P08253 110-660): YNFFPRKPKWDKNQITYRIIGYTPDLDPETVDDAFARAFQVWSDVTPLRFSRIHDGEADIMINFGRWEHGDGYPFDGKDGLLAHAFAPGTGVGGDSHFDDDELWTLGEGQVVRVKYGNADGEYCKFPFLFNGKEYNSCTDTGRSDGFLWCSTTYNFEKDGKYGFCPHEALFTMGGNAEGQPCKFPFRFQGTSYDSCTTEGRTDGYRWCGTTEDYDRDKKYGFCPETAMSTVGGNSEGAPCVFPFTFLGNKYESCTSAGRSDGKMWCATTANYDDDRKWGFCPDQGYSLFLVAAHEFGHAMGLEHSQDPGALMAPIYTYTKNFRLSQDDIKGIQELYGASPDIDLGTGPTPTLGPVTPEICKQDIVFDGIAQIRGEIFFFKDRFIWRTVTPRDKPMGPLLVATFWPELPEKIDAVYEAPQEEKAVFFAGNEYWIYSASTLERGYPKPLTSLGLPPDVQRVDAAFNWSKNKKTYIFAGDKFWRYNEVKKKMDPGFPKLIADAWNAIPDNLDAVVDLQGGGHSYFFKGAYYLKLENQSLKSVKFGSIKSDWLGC

[2] = molecular target: human MMP-9 (Homo sapiens, UniProt P14780)
[3] = molecular target: T2, MMP-7 (Homo sapiens, UniProt P09237)
T2 sequence (P09237 95-267): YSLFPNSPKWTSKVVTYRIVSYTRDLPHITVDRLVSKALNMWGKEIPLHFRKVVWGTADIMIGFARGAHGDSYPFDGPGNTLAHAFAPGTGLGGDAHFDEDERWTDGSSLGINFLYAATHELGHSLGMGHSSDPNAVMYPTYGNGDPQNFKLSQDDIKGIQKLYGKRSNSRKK

[4] = molecular target: MMP-14 (Homo sapiens, UniProt P50281)

## N=C(N)NCCCC(N)C(=O)NC(CCCNC(=N)N)C(=O)Nc1ccc(Oc2ccc(S(=O)(=O)CC3CS3)cc2)cc1 (stereo not shown) [Compound 11e]
[1]
  Ki: 0.42 ± 0.15 µM
[2]
  Ki: 18.7 ± 5.6 µM

## N=C(N)NCCCC(N)C(=O)Nc1ccc(Oc2ccc(S(=O)(=O)CC3CS3)cc2)cc1 (stereo not shown) [Compound 11d]
[3]
  Ki: 160 ± 14 µM
[4]
  Ki: 28.9 ± 2.3 µM
